From ChEMBL document CHEMBL6127118, “Identification of Oral Bioavailable Coumarin Derivatives as Potential AR Antagonists Targeting Prostate Cancer” (J Med Chem, 2024)
Activity calls are given as the source filed them. No cut-off for these calls is given here.

System: LNCaP
Conditions: Homo sapiens, dose 40.0 mg/kg/day, route po, time 32.0 day

In the case of CNC(=O)c1ccc(N2C(=S)N(c3ccc(C#N)c(C(F)(F)F)c3)C(=O)C2(C)C)cc1F [ENZALUTAMIDE], the inhibition is reported as “Active”.
